This is an account of results in PubChem BioAssay AID651951 (The Scripps Research Institute Molecular Screening Center, 2012).

Amino acid sequences for entries named in this document (tags omitted).
UniProt Q96RJ0, whole entry: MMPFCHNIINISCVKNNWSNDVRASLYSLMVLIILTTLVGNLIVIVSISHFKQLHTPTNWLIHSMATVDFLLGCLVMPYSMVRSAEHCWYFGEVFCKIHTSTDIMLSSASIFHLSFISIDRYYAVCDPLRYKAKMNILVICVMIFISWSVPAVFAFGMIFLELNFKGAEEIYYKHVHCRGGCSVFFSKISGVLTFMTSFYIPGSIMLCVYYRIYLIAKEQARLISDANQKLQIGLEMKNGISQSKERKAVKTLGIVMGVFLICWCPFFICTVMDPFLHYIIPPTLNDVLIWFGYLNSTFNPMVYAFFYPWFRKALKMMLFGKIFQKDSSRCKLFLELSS

SMILES strings stand for the structures. This is a selection; strong and weak results do not stand in their true shares. Activity calls are given as the source filed them.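 How the source made its calls: active means inhibition above the run cutoff, the mean inhibition of all test compounds plus 3 SD (cut at about 49% in these data); inactive means the rest.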

For the test, the target named is Trace amine-associated receptor 1 (Homo sapiens) (UniProt Q96RJ0). Description: loss of beta-PEA response after agonist pre-exposure – cell-based, fluorescence, tachyphylaxis, counter-screen for TAAR1 agonist project, confirmation (AID 651951).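 Further: beta-PEA stimulus applied at its EC80; loss of beta-PEA calcium signal after compound pretreatment read as receptor desensitization; 0% = DMSO with beta-PEA at EC80 and 100% = DMSO alone without agonist.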 The following applies: CHO RD-HGA16 hTAAR1, Fluo-8 calcium, at 3 µM, active compounds read high. On the technique in general: A counterscreen serves to expose hits that act by an unwanted route or on another target.
Usually inhibition stands for the relative decrease from the control value, in per cent. Regarding `CP(=O)(OC12CC3CC(CC(C3)C1)C2)OC12CC3CC(CC(C3)C1)C2`, the inhibition is inactive: -5.62%.
